Target: ectodomain of BACE (aa 1-454) (Homo sapiens (Human), UniProt P56817)
Assay: BACE FRET assay (Example 435; assay format A or B)
Type: biochemical
Conditions: footnote b: determined according to protocols described in Example 435

- IC50: 8.7 nM
Compound: CN1C(=O)C2(N=C1N)c1cc(-c3cccnc3)ccc1CC21CCc2ccccc2CC1 (stereo not shown) [Compound 418]
